Measured values reported in patent publication US6359111B1, “Opioid receptor targeting” (NeoRx Corporation, priority 1998, dated 2002).

Chains of the proteins cited; added tags and fusions are not shown.
UniProt P32300, whole entry: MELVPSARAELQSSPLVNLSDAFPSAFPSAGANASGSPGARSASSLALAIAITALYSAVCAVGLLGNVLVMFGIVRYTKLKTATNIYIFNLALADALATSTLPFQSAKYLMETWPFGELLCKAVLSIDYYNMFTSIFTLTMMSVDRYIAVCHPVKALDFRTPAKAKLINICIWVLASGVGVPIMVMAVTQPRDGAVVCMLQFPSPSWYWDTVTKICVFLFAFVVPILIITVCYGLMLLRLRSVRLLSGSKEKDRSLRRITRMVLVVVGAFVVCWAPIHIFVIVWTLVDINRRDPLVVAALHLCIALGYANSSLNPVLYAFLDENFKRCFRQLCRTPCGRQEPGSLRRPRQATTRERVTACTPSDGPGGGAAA

Biological target: Delta-Opioid Receptor (Mus musculus, UniProt P32300)
Assay: Delta-opioid receptor binding: inhibition of specific binding of 3H NID to intact NG108-15 cells

`CN(C)c1ccc2c(-c3ccc(C(=O)NCCCCCNC(=O)CCCCCNC(=O)Cn4c5c(c6ccccc64)CC4(O)C6Cc7ccc(O)c8c7C4(CCN6CC4CC4)C5O8)cc3C(=O)O)c3ccc(N(C)C)cc3[o+]c2c1` (stereo not shown) was tested, and the EC50 (competition with 3H NID, intact NG108-15 cells, 2 hr at 37° C.) was 0.016 µM, the “Log EC80 (±S.E.)” value (competition with 10^−9 M 3H NID stock, intact NG108-15 cells, 2 hr at 37° C., log molar concentration, one site competitive binding fit, negative sign printed) was −7.8 ± 0.1 and the Test/Control (ratio of EC50 of test compound to EC50 of NID in the same test) was 8.9. For the same molecule, the “fold lower in affinity than NID” value (summary of Table 1) was “about 9 fold”.
